# Binding of CDR-mutated scFvs to a peptide of the spike HR2 region

From the AlphaSeq antibody data of Li et al. 2023 (doi:10.1038/s41467-023-39022-2), copy in the FLAb collection.

All variants were tested on one target, the spike HR2 peptide PDVDLGDISGINAS (SARS-CoV-2).

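The parent was found by panning a naive human phage display library on the peptide. The variants were designed computationally from a first round of random CDR variants and then made and measured. Their group label is 14H_Ctrl (Ctrl: baseline library sampled from a position-specific scoring matrix, with some repeated check sequences). Affinity was read by AlphaSeq, a pooled yeast mating assay with surface-displayed partners. The frequency of each diploid, read from paired DNA barcodes, reflects how well the two displayed proteins bind. The ratio of observed to expected reads was calibrated, replicate by replicate, on BCL2-family standards whose Kd was known from biolayer interferometry. There are six technical replicates.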

Parent scFv Ab-14: VH joined to VL by the linker GGGGSGGGGSGGGGS. Changes lie in the heavy chain CDRs alone.
VH: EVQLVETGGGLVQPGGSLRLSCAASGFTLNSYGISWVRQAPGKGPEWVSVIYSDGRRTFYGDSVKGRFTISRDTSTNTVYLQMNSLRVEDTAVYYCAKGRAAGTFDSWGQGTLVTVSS
VL: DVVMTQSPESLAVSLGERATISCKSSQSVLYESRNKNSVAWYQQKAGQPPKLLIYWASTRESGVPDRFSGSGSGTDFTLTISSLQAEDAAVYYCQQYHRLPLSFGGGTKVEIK

The parent's heavy chain CDRs are GFTLNSYGIS, VIYSDGRRTFYGDSVK, GRAAGTFDS; each variant's own CDRs replace them letter for letter.
Affinities are written as log10 Kd with Kd in nM; a lower number is a better binder.
An entry "nd" has no value in the source: the pair was not observed among the diploids in that replicate. This suggests poor binding but is not conclusive.

For GFTLNSYGIS, VIYSDGRRTAYGDSVK, GRWAGWFDS, the assay gave nd, nd, nd, nd, nd, nd (controls 0 of 18).
For GFTLNSYGIS, VIYADGRRTFYGDSVK, CRAAGTFDS, the assay gave nd, nd, nd, nd, 1.32, nd (controls 0 of 18).
For GFTLNSYGIS, VIYSDGRRCFYGDSVK, GMAAGTFDS, the assay gave nd, 3.00, nd, nd, 3.09, nd (controls 1 of 18).
For GFTLNMYGIS, VIYSDGRRTFYGDSVK, GRAAGTMDS, the assay gave nd, nd, nd, nd, nd, nd (controls 0 of 18).
For GFMLNSYGIS, VIYSDGRRTFYGDSVK, GYAAGTFDS, the assay gave nd, nd, nd, nd, nd, nd (controls 0 of 18).
For GFTLNSYGIS, VIYSDGRRTFYGDSVK, GKDAGTFDS, the assay gave nd, 2.00, nd, 1.83, nd, 2.16 (controls 0 of 18).
For GETLNEYGIS, VIYSDGMRTFYGDSVK, GRAAGTFDS, the assay gave nd, nd, nd, nd, nd, nd (controls 0 of 18).
For GFTLDSYGIS, VIYSDGRRTFYGDSVK, GRAAGFFIS, the assay gave nd, nd, nd, nd, nd, nd (controls 1 of 18).
For GFTLNSYGIS, VIYSDGRRTFYSDSVD, GRAAGTTDS, the assay gave nd, nd, nd, nd, nd, nd (controls 0 of 18).
For GETLNSYGIS, VIYSDGRRTFYGDSVK, GRAAGTFDE, the assay gave nd, nd, 0.96, nd, nd, nd (controls 0 of 18).
For TFTLNSYGIS, VIYSDGRRTFYGDSVK, GRNAGTFDS, the assay gave nd, nd, nd, nd, nd, nd (controls 0 of 18).
For LFTLNSYGIS, VIYADGRRTFYGDFVK, GRAAGTFDS, the assay gave nd, nd, nd, nd, nd, nd (controls 0 of 18).
For GFTLNSYGIS, VIYSDGRRTFYIDSVK, GRAAGTFDT, the assay gave nd, 1.20, 0.70, 1.79, nd, 1.34 (controls 0 of 18).
For GFTLNSYGIS, VIYSDGRRTFYIDSVK, GGAAGYFSS, the assay gave nd, nd, nd, nd, nd, 2.61 (controls 0 of 18).
For GFTLNSYGIS, VIYSDGRRTFYGDSVK, GYAAGTFDS, the assay gave nd, 2.86, 2.19, 2.14, 3.42, 2.54 (controls 1 of 18).
For GFTLNDYGIS, VIYSDIRRTFYIDSVK, GNEMGTFDL, the assay gave nd, nd, nd, nd, nd, nd (controls 1 of 18).
For GFTLNSFGIS, VIYSDGRRTFYGDSVK, GKADGMFDS, the assay gave nd, nd, nd, nd, nd, nd (controls 0 of 18).
For GFTLSSYGIS, VIYSDGYRTFYGDSVK, RREAAAFDS, the assay gave nd, nd, nd, nd, nd, nd (controls 0 of 18).
For GFTLNSYGIS, VIYSDGRRTFYDDSVK, GQAAGTFDS, the assay gave nd, 1.64, nd, nd, 2.87, nd (controls 0 of 18).
For GFTLNSYGIS, VIYSDGRRTFYGDSVK, GRAAGTFDQ, the assay gave nd, 1.68, 1.95, 2.11, 2.37, 2.04 (controls 0 of 18).
For GFTLNSYGIS, VIYADGRRTFYGDSFK, GYAAGTFDS, the assay gave nd, 1.76, 1.29, 2.78, nd, nd (controls 1 of 18).
For GFTLNSYGIS, VIYSDGRRTFYGDSVK, GQAAGAFCS, the assay gave nd, nd, nd, nd, nd, nd (controls 0 of 18).
For GFTINNYGIS, VIYSDMRRTFYGDSVK, GRDAGTFDS, the assay gave nd, nd, nd, nd, nd, nd (controls 0 of 18).
For GFTLNDYGIS, VIYSDGRRTFYGDSVK, GRDAGTFDL, the assay gave nd, nd, -0.24, 0.11, nd, nd (controls 0 of 18).
For GFTLNDYGIS, VIYSDGNRTFYIDSVK, GRAAGTFDW, the assay gave 1.16, 2.03, nd, 2.16, 2.41, 2.25 (controls 1 of 18).
For GFWLNSYGIS, VIYSDGKRTFYGDSVV, GRAAGTFDS, the assay gave nd, nd, nd, nd, nd, nd (controls 0 of 18).
For GRTLNSYGIS, VIYSDGRRTEYGDSVK, GRAAGCFDS, the assay gave nd, nd, nd, nd, nd, nd (controls 1 of 18).
For GFALNSYGIS, VIYSDGRRTFYGDSVK, GRAQGTTDS, the assay gave nd, nd, nd, nd, nd, nd (controls 1 of 18).
For GFPLDSYGIS, VIYSDGRRTFYADSVK, GRAAETFKS, the assay gave nd, nd, nd, nd, nd, nd (controls 1 of 18).
For GFDLNQYGIS, VIYSDGRRTFYGDSVK, GREAGTFDS, the assay gave nd, nd, 1.62, nd, nd, 1.16 (controls 0 of 18).
For GFTPDSYGIS, VIYSDGRRTFYGDSVK, GRAADTFLS, the assay gave nd, nd, nd, nd, nd, nd (controls 0 of 18).
For GFTLNSYGIS, VIYSDGMRTFYGDSVK, GVAAKTFDS, the assay gave nd, nd, nd, nd, nd, nd (controls 0 of 18).
For GFCLNEYGIS, VIYSDGRRTFYADSVK, GRAAGTFDS, the assay gave 0.97, 1.32, 1.21, 1.23, 1.08, nd (controls 0 of 18).
For GFQLNSYGIS, VIYSDGRRTAYGDSVK, LRAAGTFDS, the assay gave nd, nd, 2.30, nd, 3.38, nd (controls 0 of 18).
For GFTLNSYGPS, VIYSDGRRTFYEDSVK, GRAAGTFWS, the assay gave nd, nd, nd, nd, nd, nd (controls 0 of 18).
For GFPLLSYGIS, VIYSDGRRTFYSDSVK, GRAAGTFDS, the assay gave nd, nd, nd, nd, nd, nd (controls 0 of 18).
For GFDLNEYGIS, VIYMDGRRTFYSDSVK, GNIAGTFDS, the assay gave nd, nd, nd, nd, nd, nd (controls 0 of 18).
For GFTLNSYGIS, VIYSDGRRTSYGDQVK, GRAAGTFDS, the assay gave 1.58, nd, nd, nd, 1.66, nd (controls 0 of 18).
For GFDLNMYGIS, VIYSDGRRTSYHDSVK, GRAAGTFPM, the assay gave nd, nd, nd, nd, nd, nd (controls 0 of 18).
For GFTLNSYGIS, VIYSDGRRTFYNDSVK, GREGGTWDS, the assay gave nd, nd, nd, nd, 3.45, 1.92 (controls 0 of 18).
For GFWLDSYGIS, VIYSDGRRTFYGDSVK, HRRAGGFLS, the assay gave nd, nd, nd, nd, 1.75, nd (controls 0 of 18).
For GVDLNQYGIS, VIYSDGRRTFYGDSVK, GRAAGTFDS, the assay gave 0.30, 0.23, 0.16, 0.16, -0.29, 0.56 (controls 0 of 18).
For TFTLNSYGIS, VIYSDGERTFYTDSVK, GRAAGTFDS, the assay gave 2.28, 2.57, nd, 3.17, 3.84, nd (controls 0 of 18).
For GFTINSYGIS, VIYSDGRRTFYADSVK, LRAAGTFDS, the assay gave nd, nd, nd, nd, nd, nd (controls 0 of 18).
For GFTLNKYGIS, VIYSDGRRTFYGDSVK, GQAALTFDS, the assay gave nd, nd, nd, nd, nd, nd (controls 0 of 18).
For GFTLNMYGIS, VIYADGRRTFYGDSVK, GRAPGTFDS, the assay gave 1.29, 1.21, 0.84, 1.43, 0.97, 1.20 (controls 0 of 18).

Top 2 of the variants detected in all replicates, tightest first:

CDR-H1	CDR-H2	CDR-H3	log10 Kd (nM) by replicate	control signals
GVDLNQYGIS	VIYSDGRRTFYGDSVK	GRAAGTFDS	0.30, 0.23, 0.16, 0.16, -0.29, 0.56	0/18
GFTLNMYGIS	VIYADGRRTFYGDSVK	GRAPGTFDS	1.29, 1.21, 0.84, 1.43, 0.97, 1.20	0/18

Values of this round are not directly comparable with the first-round values of the same sequences.
In the paper, a design with two or fewer of six values counts as a poor binder.
Empty control strains, which show no peptide, gave a signal in 1% of pairings with all heavy chain designs; the median was 2.08 and 95% of these signals were weaker than 0.84. No background was subtracted. The control count says in how many pairings with the empty strains this scFv gave a signal.